# Experimental data reported in US20250359578A1, “WATER-SOLUBLE CREATINE AGGLOMERATE” (Alzchem Trostberg GmbH, priority 2022, published 2025).
# Assay: Determination of the dissolution rate (mass of filter residue)
# Type: physicochemical
# Conditions: summary of Table 4
# Text: The moist filter residue is dried. The mass of the filter residue serves as a measure of the dissolution rate; the lower the mass, the better the dissolution rate.
compound,measurement,value
CN(CC(=O)O)C(=N)N.O [creatine monohydrate],dissolution rate (in words),slow dissolution rate
